# Measured values published in patent publication US20240325397A1, “USE OF COMBINATION THERAPY FOR TREATING CANCER” (Recurium IP Holdings, LLC, priority 2021, published 2024).
# Legend:
# [1] = system: HER2+ JIMT-1 breast cancer cell line; assay: HER2+ JIMT-1 breast cancer xenograft, Study 1-Part 2 (high initial tumor burden); assay type: in vivo, NOD/SCID mice; details: Day 14 of second part; tumors approximately 1000 mm^3 at start; Compound (A) 60 mg/kg p.o. qd; trastuzumab 10 mg/kg i.p. qw; vs. vehicle
# From the text: Next, mice in the two vehicle groups were randomized on Day 29 to be treated with either vehicle, Compound (A) alone, trastuzumab alone or the combination of Compound (A) with trastuzumab according to Table 4. At this point, tumors had reached approximately 1000 mm^3 and therefore, treatment of these mice occurred at high initial tumor burden.
# Table 5 summarizes the results (tumor growth inhibition) of the experiment depicted in FIG. 9. ^aTGI=Tumor growth inhibition on Day 14. […] Table 6 summarizes the results (tumor regression) of the experiment depicted in FIG. 9. ^aTumor Regression=(1−(Td/T0))×100%.
# [2] = system: HER2+ JIMT-1 breast cancer cell line; assay: HER2+ JIMT-1 breast cancer xenograft, Study 1-Part 1; assay type: in vivo; details: Compound (A) 60 mg/kg p.o. qd × 28, trastuzumab 10 mg/kg i.p. qw × 4
# From the text: The HER2+ JIMT-1 breast cancer cell line was used for tumor xenograft inoculations and subsequent treatment. The JIMT-1 breast cancer cell line has been described in literature to be relatively resistant to HER2-targeted therapy (JIMT-1 cell line was established from pleural metastasis of a patient with breast cancer who was clinically resistant to trastuzumab (See Tanner et al. Mol Cancer Ther (2004) 3(12):1585-1592)), including to weekly administration of trastuzumab. To test if Compound (A) can improve the anti-tumor effects of HER2-targeted treatment, NOD/SCID mice were inoculated subcutaneously on the right flank with the single cell suspension of 95% viable tumor cells (5×10^6) in 100 μL DMEM Matrigel mixture (1:1 ratio) for tumor development. Treatment was started when mean tumor size reached 204 mm^3. Mice were then randomized into 5 groups and treatments were administered to the tumor-bearing mice accordingly to the study design in Table 2.
# In FIG. 8, the top line (indicated with circles) is Vehicle A, and the third from the bottom line (indicated with circles) is trastuzumab (10 mg/kg) alone. […] Table 3 summarizes the results of the experiment depicted in FIG. 8. ^aTGI=Tumor growth inhibition, calculated as TGI=(1-(Td−T0)/(Cd−-C0))×100%, Td and Cd were the mean tumor volumes of the treated and control animals, and T0 and C0 were the mean tumor volumes of the treated and control animals at the start of the experiment; ^b. calculated vs. Vehicle Control by Dunnett T3 Test.
substance,measurement,setting,value
trastuzumab,TGI (%) on Day 14,[1],68.0%
same,tolerability,[2],well tolerated
same,tumor growth inhibition (TGI) on Day 29 compared to respective vehicle controls,[2]; combination vs. either vehicle control,59%
same,TGI (%) vs. Vehicle B,"[2]; Day 29, Vehicle B i.p.",59.2%
